Yeast mating assay B: variants of the scFv Ab-14

All variants were tested on one target, the spike HR2 peptide PDVDLGDISGINAS (SARS-CoV-2).

Parent scFv Ab-14: VH joined to VL by a 15-residue (Gly4Ser)3 linker. Changes lie in the light chain CDRs alone.
VH: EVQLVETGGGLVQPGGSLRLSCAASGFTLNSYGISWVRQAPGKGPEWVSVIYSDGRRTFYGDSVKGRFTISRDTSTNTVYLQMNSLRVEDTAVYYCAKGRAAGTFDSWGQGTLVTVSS
VL: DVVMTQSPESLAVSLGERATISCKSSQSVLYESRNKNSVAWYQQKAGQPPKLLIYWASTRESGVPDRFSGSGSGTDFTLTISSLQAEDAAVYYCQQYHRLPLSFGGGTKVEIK

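The starting antibody came from a phage panning campaign against this peptide. These sequences belong to a second round, designed from the earlier measurements on random variants of the parent. Their group label is 14L_En_Gibbs (En: ensemble of fine-tuned language models; Gibbs: Gibbs sampling). Affinity was read by AlphaSeq, a pooled yeast mating assay with surface-displayed partners. Pairs that bind mate more often; barcode pairs of the diploids are counted by sequencing. Each replicate has its own calibration line, from reference interactions of the BCL2 family. The assay was run in six technical replicates.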

Variants are written as CDR1, CDR2 and CDR3 of the light chain (limits as in the source). Parent: KSSQSVLYESRNKNSVA, WASTRES, QQYHRLPLS.
Values are log10 of the apparent Kd in nM; lower means stronger binding.
Replicates are averaged; those with no signal do not enter the mean.
Where no diploid with the target was found in that replicate, the entry reads "ND": below detection, most likely a poor binder, though not proof of it.
The authors' rule: three or more of the six replicates give a measured affinity, fewer mean a poor binder.
Values of this round are not directly comparable with the first-round values of the same sequences.
Empty control strains, which show no peptide, gave a signal in 4% of pairings with all light chain designs; the median was 2.64 and 95% of these signals were weaker than 1.59. No background was subtracted. For each scFv, signals with the empty controls are counted beside the result, with their mean in brackets.
The parent sequence was in this pool as ten entries: three were never detected, three once, and four in most replicates, with averages from 0.34 to 2.37.

CDR-L1	CDR-L2	CDR-L3	replicates, log10 nM	mean, log10 nM	signal with controls
NLVGRVPDMYDGRNAIA	DMHAKAT	QQYFRLPLA	0.85 / 0.42 / 0.08 / 0.30 / 0.35 / 0.78	0.46	1/18 (3.06)
QLGDEQVSGTLMAQNIA	HSDFRAD	QQYFRLPLL	0.38 / 0.21 / 0.22 / 0.06 / 0.26 / 0.35	0.25	0/18
KLWAYFQGLESNMQNVA	DGIYRST	QQYDRLPLS	1.19 / 0.93 / 0.93 / 0.91 / 0.58 / 1.25	0.97	0/18
TLDNHQAGYYQKNNNIA	EMNMRRY	QQYGRLPLS	1.27 / 1.44 / 1.34 / 0.79 / 0.94 / 0.93	1.12	1/18 (2.65)
TFDQMGEQKGMNTNSVA	AGNIVRI	QQYSRLPFS	0.95 / 0.55 / 0.28 / 0.42 / 0.51 / 0.66	0.56	0/18
NITGMVNSKGTTTKNIA	EAEFRCG	QQYSRLPLS	2.20 / 2.17 / 2.17 / 1.69 / 1.70 / 1.43	1.89	3/18 (3.01)
RLYNQETEQIQHANSIA	DRDEVDS	QQYAHLPLS	1.43 / 0.31 / 2.12 / 1.07 / 0.39 / 0.45	0.96	0/18
MLDEYQSYGAANLNAVA	DANCTMF	QQYYRLPLS	0.87 / 0.78 / 0.66 / 0.58 / 0.91 / 0.97	0.79	1/18 (2.69)
KMEMDFRGNDVNRNSIA	SDEAVTR	QHYARLPLI	ND / ND / ND / ND / ND / 1.19	1.19	0/18
RITEQYFEYMHNINNVA	EAECKQY	QQYAHLPLL	ND / ND / ND / 2.12 / 3.68 / 1.61	2.47	0/18
ALALTLHQVDSQMNNIA	EGMERES	QQYNRLPLG	1.37 / 1.70 / 1.26 / 1.00 / 1.79 / 1.91	1.50	3/18 (2.50)
MLSYNLHDMGRNKNNVA	EMNKSTT	QDYHRLPLA	0.00 / 0.25 / 0.08 / 0.12 / 0.11 / 0.16	0.12	3/18 (2.63)
NIVEDNAGDQKNSSNIA	SVDQRED	QQYQRLPLM	0.54 / 0.79 / 0.46 / 0.63 / 1.11 / 0.91	0.74	0/18
RLTEHTSERAYADASVA	DASTRND	QQYHRLPLF	0.71 / 0.70 / 0.63 / 0.53 / 0.56 / 0.74	0.64	4/18 (2.80)
HMRMECSGYQNYGKSIA	HGNMRHN	QQYSRLPFS	1.14 / 1.30 / 0.73 / 1.24 / 1.18 / 1.43	1.17	1/18 (3.51)
YAQMPFNEVGKDEQNIA	NATIRES	QQYFRLPIL	0.84 / 1.44 / 1.23 / 2.23 / 1.77 / 1.03	1.42	0/18
QLENDMTSNQGTRHNIA	EATVIAP	QQYHRLPII	1.20 / 1.41 / 1.18 / 0.98 / 1.13 / 1.07	1.16	2/18 (2.78)
HFAWPWQSGYVSKQNVA	NASTVMT	QHYNRLPLS	0.93 / 1.07 / 0.53 / 0.66 / 0.49 / 0.72	0.73	3/18 (2.73)
ALALTLWQVDSQMNNIA	EGMLRES	QQYNRLPLG	ND / ND / ND / 1.49 / 0.71 / 1.70	1.30	1/18 (1.89)
AFTQNIFYGQRDDNSIA	HADELVK	QQYDRFPLA	1.09 / 0.69 / 0.73 / 1.03 / 1.03 / 2.00	1.10	0/18
SLMNLMGGIEEMKNSIA	NQETGVR	QQYAHLPLV	1.54 / 1.82 / 1.05 / ND / 4.08 / ND	2.12	1/18 (2.45)
KIDMSLNYESVALDSIA	EEVMHTA	QQYDRLPLF	ND / 1.72 / ND / ND / ND / ND	1.72	0/18
KIQQHRLGTEQYLNAIA	NEQVRED	QQYMQLPLI	1.02 / 0.43 / -0.19 / 0.52 / 0.24 / 0.80	0.47	1/18 (2.77)
HFSQHTMEFMSQNKAIA	EVTTTMT	QQYARLPFI	1.43 / 0.29 / 1.01 / 0.70 / 0.88 / 0.70	0.84	0/18
VFSGQWDGNTTENSAVA	NVDERML	QQYNRLPLM	2.97 / 1.16 / 1.19 / 0.98 / 1.11 / 1.64	1.51	2/18 (2.99)
FIDGNQYDKYQVENSIA	DEAQIQA	QQYGLLPLS	ND / ND / ND / ND / ND / ND	ND	0/18
TLGIQPTEMRDNKHAVA	DDEQRDR	QQYMRLPLS	0.37 / 0.21 / 0.11 / 0.44 / 0.18 / 0.42	0.29	0/18
TLMMGPTEARDSKHAIA	DNNERDR	QQYHRLPLY	0.83 / 0.75 / 0.75 / 0.70 / 0.63 / 0.71	0.73	1/18 (3.02)
KLSLGLGVQKQVEKNIA	NERLKIA	QQYDRLPLT	0.90 / 0.78 / 0.35 / 0.41 / 0.30 / 0.67	0.57	0/18
MIEIIQDNYDEMRSAIA	DTNLVRM	QQYYHLPLM	1.75 / ND / 0.88 / ND / ND / ND	1.31	1/18 (1.34)
QIDHPELSFQQNQYSIA	NASASLD	QQYAQLPLM	1.25 / 1.16 / 1.17 / 1.19 / 1.60 / 1.80	1.36	2/18 (2.73)
RIMGQLNVEGKNRNAVA	SGKEQVI	QHYARLPLS	2.13 / 3.49 / ND / ND / 1.84 / ND	2.48	0/18
KLEMDTLGLKGNQNSIA	AARESWE	QQYYMLPIS	1.28 / 0.74 / 0.45 / 1.34 / 0.74 / 1.23	0.96	2/18 (2.36)
VLPDPTMRFDFQGNSIA	NAVARME	QQYERLPLT	1.11 / 1.15 / 1.00 / 1.05 / 0.95 / 0.73	1.00	0/18

For reference, 5 entries of the list once more:

CDR-L1,CDR-L2,CDR-L3,"replicates, log10 nM","mean, log10 nM",signal with controls
HMRMECSGYQNYGKSIA,HGNMRHN,QQYSRLPFS,1.14 / 1.30 / 0.73 / 1.24 / 1.18 / 1.43,1.17,1/18 (3.51)
KIQQHRLGTEQYLNAIA,NEQVRED,QQYMQLPLI,1.02 / 0.43 / -0.19 / 0.52 / 0.24 / 0.80,0.47,1/18 (2.77)
FIDGNQYDKYQVENSIA,DEAQIQA,QQYGLLPLS,ND / ND / ND / ND / ND / ND,ND,0/18
TLMMGPTEARDSKHAIA,DNNERDR,QQYHRLPLY,0.83 / 0.75 / 0.75 / 0.70 / 0.63 / 0.71,0.73,1/18 (3.02)
RIMGQLNVEGKNRNAVA,SGKEQVI,QHYARLPLS,2.13 / 3.49 / ND / ND / 1.84 / ND,2.48,0/18

Source: Li et al. 2023 (doi:10.1038/s41467-023-39022-2), MIT Lincoln Laboratory and A-Alpha Bio; data file from the FLAb repository.